# Measured affinities in a library of Ab-91 heavy chain variants

Reference: Engelhart et al. 2022, doi:10.1038/s41597-022-01779-4. File: FLAb, binding data.

Antigen: PDVDLGDISGINAS, a 14-residue peptide of the SARS-CoV-2 spike HR2 region.

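AAYL51 was designed without a model: most single CDR substitutions and a random sample of double and triple ones. The assay is AlphaSeq: two haploid yeast populations carry antibody and antigen on their surface. Mating (16 h, 30 °C) was followed by selection of diploids and sequencing of their barcodes. Scores were corrected for input abundance and mapped to Kd with protein pairs of known affinity run in the same pool. There are three technical replicates.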

Parent: Ab-91, a human scFv built as VL, a 15-residue (Gly4Ser)3 linker, VH. Only the CDRs of the heavy chain vary.
VL: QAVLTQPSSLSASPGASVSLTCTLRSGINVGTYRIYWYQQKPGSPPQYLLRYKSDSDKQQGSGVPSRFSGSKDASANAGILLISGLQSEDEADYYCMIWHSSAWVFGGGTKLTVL
VH: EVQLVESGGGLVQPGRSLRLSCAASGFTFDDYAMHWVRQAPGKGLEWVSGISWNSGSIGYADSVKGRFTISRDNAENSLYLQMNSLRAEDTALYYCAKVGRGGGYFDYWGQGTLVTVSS

Positions count from residue 1 of the parent VH; Y32V puts V in place of Y. All variants listed here change A33 of the VH, counted from its first residue. Values are apparent Kd, the geometric mean of the replicates that gave a signal; lower means stronger binding. Where no diploid with the target was found in any replicate, the entry reads "nd": below detection, most likely a poor binder, though not proof of it. For reference, the parent read 72 nM as the reference entry and 7.5 nM as a member of this library.

The variant Y32V A33M Y105I showed 8.9 µM (1 of 3 replicates). The variant A33K gave 830 µM (1 of 3 replicates). With A33R W53V A61T the result was nd (0 of 3 replicates). The variant A33S A61D G103F showed 300 µM (1 of 3 replicates). For A33H V99I, the assay gave 6.9 µM (1 of 3 replicates). The variant A33H V64D R101N showed 19 µM (1 of 3 replicates). The variant A33V G50S S57H gave 93 µM (1 of 3 replicates). For Y32S A33S I58Y, the assay gave 31 nM (3 of 3 replicates).

With A33S S52I the result was nd (0 of 3 replicates). The variant D31P A33Y G103F gave 43 µM (2 of 3 replicates). The variant A33D S63L G104A gave nd (0 of 3 replicates). For A33Y Y60I G103Y, the assay gave 160 µM (2 of 3 replicates). For A33T G102R Y105V, the assay gave 18 µM (1 of 3 replicates). The variant G26A T28V A33H gave nd (0 of 3 replicates). The variant G26M A33Q D62R showed nd (0 of 3 replicates). The variant D30G A33R S52H gave 69 µM (1 of 3 replicates).

For A33V H35P G100D, the assay gave nd (0 of 3 replicates). The variant F29M A33K Y108M showed 85 µM (1 of 3 replicates). For G26E A33V D62F, the assay gave nd (0 of 3 replicates). With A33R G59W K65Y the result was nd (0 of 3 replicates). For A33F N54W G103H, the assay gave 360 µM (1 of 3 replicates). For A33T V99I Y108Q, the assay gave 220 µM (1 of 3 replicates). The variant A33I W53I S57W showed nd (0 of 3 replicates). The variant A33D V99S R101A gave 78 µM (2 of 3 replicates).

The variant A33H I51G gave nd (0 of 3 replicates). For F29R A33L G100N, the assay gave 15 µM (1 of 3 replicates). With A33T I51H I58H the result was nd (0 of 3 replicates). For A33V R101H G102S, the assay gave nd (0 of 3 replicates). With T28Q A33C Y108G the result was nd (0 of 3 replicates). The variant A33F G104L F106V showed 720 nM (1 of 3 replicates). With A33G G100R Y108N the result was 230 nM (3 of 3 replicates). For A33K W53P S63T, the assay gave nd (0 of 3 replicates).

The variant F29G A33Y V99A showed 92 µM (1 of 3 replicates). The variant G26S D31N A33C showed nd (0 of 3 replicates). For A33N W53Y V64Q, the assay gave nd (0 of 3 replicates). For A33S Y105N Y108D, the assay gave 120 nM (3 of 3 replicates). For A33Q M34L, the assay gave 14 µM (3 of 3 replicates). The variant A33E I58Y showed 94 µM (2 of 3 replicates). With G26K A33D the result was 110 µM (3 of 3 replicates). For A33N I51P S52E, the assay gave nd (0 of 3 replicates).

Empty control strains, which show no peptide, gave a signal in 21% of pairings with library AAYL51; the median was 34 µM and 95% of these signals were weaker than 1.8 µM. No background was subtracted.